## Ab-95 light chain CDR variants: yeast mating affinities

Target: peptide PDVDLGDISGINAS, taken from heptad repeat 2 (HR2) of SARS-CoV-2 spike.

Parent: Ab-95, a human scFv built as VH, the linker GGGGSGGGGSGGGGS, VL. Only the CDRs of the light chain vary.
VH: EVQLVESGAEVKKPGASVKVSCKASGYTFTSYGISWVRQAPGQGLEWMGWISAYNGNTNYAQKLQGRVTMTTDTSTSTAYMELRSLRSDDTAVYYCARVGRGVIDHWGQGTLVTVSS
VL: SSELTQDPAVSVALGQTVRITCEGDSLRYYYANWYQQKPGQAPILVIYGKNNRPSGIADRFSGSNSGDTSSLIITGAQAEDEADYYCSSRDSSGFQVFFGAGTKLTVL

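The starting antibody came from a phage panning campaign against this peptide. Library AAYL52 holds single substitutions and randomly drawn double and triple substitutions in the CDRs. The assay is AlphaSeq: two haploid yeast populations carry antibody and antigen on their surface. Binding brings cells together so that they mate, and sequencing counts the barcode pairs among the diploids. Scores were corrected for input abundance and mapped to Kd with protein pairs of known affinity run in the same pool. The assay was run in three technical replicates.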

Each variant is given by its three light chain CDRs, as the data file delimits them; those of the parent are EGDSLRYYYAN, GKNNRPS, SSRDSSGFQVF.
The read-out is the apparent dissociation constant on a log10 scale (nM): the lower, the stronger.
An entry "n.d." has no value in the source: the pair was not observed among the diploids in that replicate. This suggests poor binding but is not conclusive.
Empty control strains, which show no peptide, gave a signal in 28% of pairings with library AAYL52; the median was 3.91 and 95% of these signals were weaker than 2.90. No background was subtracted. Also given: how often the same scFv was detected with the empty control strains, with their mean in brackets.
In this assay the parent's reference entry averaged 2.31; its copy inside this library read 2.25.

CDR-L1,CDR-L2,CDR-L3,log10 Kd (nM) by replicate,empty controls
EGDSLRYYYAN,GKNNRPS,SSTDSDGFQVF,2.74 2.04 2.57,3/9 (4.38)
EGDSLRYYYAN,GKNNRPS,SNRDSSGFQVF,3.71 2.71 n.d.,3/9 (3.72)
EGDSLRYYYAN,KKNNRPS,SFRDSSGFVVF,3.91 n.d. n.d.,0/9
TGDSLRYYYAN,GKNNRPS,SSRDSSGFQVF,1.66 1.66 0.99,5/9 (4.56)
EGDSLRYYYQN,GKNNDPS,SSRDSSGFQVP,3.45 4.40 4.44,3/9 (3.48)
EGDSLRYYYTN,GKNNQPS,SSRDSSDFQVF,3.72 n.d. 4.06,4/9 (3.40)
EGDSERYYYAN,GKNNRPS,SSRDSNGGQVF,5.36 5.32 n.d.,3/9 (3.68)
EGDKFRYYYAN,GKNNRPS,SSRDSSCFQVF,2.11 3.39 2.24,2/9 (3.54)
EGDSLRYYYVN,GKNNWPS,SSRDSSAFQVF,3.64 4.13 n.d.,3/9 (4.07)
EGDSLRYNYAF,PKNNRPS,SSRDSSGFQVF,n.d. 3.63 3.71,3/9 (3.36)
EGDSLRYYQDC,GKNNRPS,SSRDSSGFQVF,3.34 4.20 n.d.,3/9 (4.28)
EGDSLRYYYAN,QKNNRPS,SSLDSSGFQVI,n.d. 3.48 n.d.,2/9 (3.88)
EGDSKRYYYAG,GKNNRPS,SSMDSSGFQVF,n.d. n.d. n.d.,1/9 (4.33)
EGDSLGYYYAN,GKNNRPV,SSRDSSGFQVF,2.01 2.48 2.08,2/9 (4.22)
EGDSLRYYYAN,GKNNRPN,SSQDSGGFQVF,n.d. n.d. n.d.,0/9
MGDSLHYYYAN,GKNNRPS,SSRDDSGFQVF,3.10 3.00 2.99,3/9 (4.26)
EGDSLRYRYKN,GKNNRPS,SSRDSSGDQVF,n.d. 4.69 3.47,5/9 (4.24)
EGDSLRSLYAN,GKNNDPS,SSRDSSGFQVF,5.71 n.d. n.d.,0/9
EGDQLRYYTAN,GKNNRPS,SSRDSSGKQVF,n.d. 3.11 n.d.,1/9 (4.11)
EGKSLLYYYAN,GKNNRPS,SSRDSSGFQVH,2.39 2.12 2.41,3/9 (4.53)
EGDYLRYYYAN,GKVNRWS,SSRDSSGFQVF,3.18 n.d. n.d.,1/9 (4.21)
GGDSLRYYYAN,GKNNAPS,SSHDSSGFQVF,2.80 2.51 2.56,1/9 (4.85)
EGDSLRYYYAN,GKANVPS,SSRDSSGFEVF,3.70 3.17 3.35,5/9 (4.42)
EGGSLRYYYAN,GKNNRPS,SWRDPSGFQVF,3.53 3.42 4.13,3/9 (4.08)
EGDSLRYYYAN,GKINRPS,SSRDFSGFQVF,n.d. n.d. n.d.,2/9 (3.48)
EGDSLRYYKAL,GKNNRPS,SSRDSSGFWVF,n.d. n.d. 4.46,7/9 (3.66)
MGDLLRYYYAL,GKNNRPS,SSRDSSGFQVF,n.d. n.d. n.d.,4/9 (3.72)
EGDSERYYYAN,GKHHRPS,SSRDSSGFQVF,4.09 n.d. n.d.,1/9 (4.70)
EGDSLRYYYAN,GKLGRPS,SSRDSSGFCVF,3.66 3.82 4.61,3/9 (4.15)
EGDSLRYYYAN,GKHNRPS,SSRDHSGFPVF,4.83 3.85 2.94,5/9 (3.81)
EGDSLRYYSAH,GKNNRPS,SSRASSGFQVF,n.d. 3.62 3.58,3/9 (3.69)
EGDSPRYYYAN,GKNNRPS,RSRDSSGFMVF,n.d. 5.24 n.d.,5/9 (3.84)
EGDSLRYYYAN,GKNERGS,SPRDSSGFQVF,n.d. n.d. n.d.,1/9 (3.97)
EGDLLRYYYAN,GKNNRPS,SSYDSSGMQVF,4.07 4.29 n.d.,3/9 (4.92)
EGDSLRAEYAN,GKNNRPS,SSRDSSGFQEF,1.44 1.32 0.79,2/9 (3.89)
EGDSLRYYYIN,GKNNRWS,SDRDSSGFQVF,3.39 n.d. n.d.,0/9
EGDSLRYYYAS,GHNNRPS,SSCDSSGFQVF,3.54 n.d. 3.15,5/9 (3.98)
EGDSLRLYYAN,GKNNPPS,SLRDSSGFQVF,n.d. n.d. n.d.,1/9 (3.68)
EGDSLRYYYAN,GKNGRPS,SSCDSSGFQVD,3.62 n.d. n.d.,3/9 (3.78)
EGKSLRYYYAN,GKNNRPS,SSRDSSGVQVF,2.24 2.08 2.38,2/9 (4.09)
EGDSLRYYYSN,GKNNRPS,SGNDSSGFQVF,2.60 2.68 1.75,1/9 (3.21)
CGDSLRYYYAN,GRNNRPS,SSRDSFGFQVF,3.21 n.d. n.d.,0/9
ELDSLRYYYAN,GKNYRPS,SSRDSSGFQKF,n.d. 3.48 n.d.,2/9 (3.73)

The closing 5 entries, repeated:

{"CDR-L1": "EGDSLRYYYAN", "CDR-L2": "GKNGRPS", "CDR-L3": "SSCDSSGFQVD", "log10 Kd (nM) by replicate": "3.62 n.d. n.d.", "empty controls": "3/9 (3.78)"}
{"CDR-L1": "EGKSLRYYYAN", "CDR-L2": "GKNNRPS", "CDR-L3": "SSRDSSGVQVF", "log10 Kd (nM) by replicate": "2.24 2.08 2.38", "empty controls": "2/9 (4.09)"}
{"CDR-L1": "EGDSLRYYYSN", "CDR-L2": "GKNNRPS", "CDR-L3": "SGNDSSGFQVF", "log10 Kd (nM) by replicate": "2.60 2.68 1.75", "empty controls": "1/9 (3.21)"}
{"CDR-L1": "CGDSLRYYYAN", "CDR-L2": "GRNNRPS", "CDR-L3": "SSRDSFGFQVF", "log10 Kd (nM) by replicate": "3.21 n.d. n.d.", "empty controls": "0/9"}
{"CDR-L1": "ELDSLRYYYAN", "CDR-L2": "GKNYRPS", "CDR-L3": "SSRDSSGFQKF", "log10 Kd (nM) by replicate": "n.d. 3.48 n.d.", "empty controls": "2/9 (3.73)"}

Reference: Engelhart et al. 2022, doi:10.1038/s41597-022-01779-4. File: FLAb, binding data.